Experimental data: ChEMBL document CHEMBL1145401, “Design and synthesis of classical and nonclassical 6-arylthio-2,4-diamino-5-ethylpyrrolo[2,3-d]pyrimidines as antifolates” (J Med Chem, 2007)

Tests used:
Dihydrofolate reductase = target: T1, Dihydrofolate reductase (Mycobacterium avium, UniProt O30463)
T1 sequence (O30463 whole entry): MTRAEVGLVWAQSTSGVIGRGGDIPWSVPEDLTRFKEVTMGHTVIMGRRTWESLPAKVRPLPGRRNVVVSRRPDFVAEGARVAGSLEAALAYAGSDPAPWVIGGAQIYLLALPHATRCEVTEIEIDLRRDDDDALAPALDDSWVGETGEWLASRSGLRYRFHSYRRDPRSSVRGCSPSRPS

[1] = Selectivity ratio of IC50 for rat liver DHFR to IC50 for Pneumocystis carinii DHFR

Ratio IC50 [1]	Structure (SMILES)	IC50 (Dihydrofolate reductase)
–	CCc1c(Sc2ccccc2)[nH]c2nc(N)nc(N)c12	880 nM
0.5	COc1ccc(OC)c(Sc2[nH]c3nc(N)nc(N)c3c2C)c1	–
